The values that follow come from paper PMC12281475, “Mediator Kinase Inhibitor Selectivity and Activity in Colorectal Cancer” (ACS Chemical Biology, 2025).

Amino acid sequences for entries named in this document (tags omitted). A change or cut given only in a name is not applied to a line headed by its entry.
UniProt Q9BWU1: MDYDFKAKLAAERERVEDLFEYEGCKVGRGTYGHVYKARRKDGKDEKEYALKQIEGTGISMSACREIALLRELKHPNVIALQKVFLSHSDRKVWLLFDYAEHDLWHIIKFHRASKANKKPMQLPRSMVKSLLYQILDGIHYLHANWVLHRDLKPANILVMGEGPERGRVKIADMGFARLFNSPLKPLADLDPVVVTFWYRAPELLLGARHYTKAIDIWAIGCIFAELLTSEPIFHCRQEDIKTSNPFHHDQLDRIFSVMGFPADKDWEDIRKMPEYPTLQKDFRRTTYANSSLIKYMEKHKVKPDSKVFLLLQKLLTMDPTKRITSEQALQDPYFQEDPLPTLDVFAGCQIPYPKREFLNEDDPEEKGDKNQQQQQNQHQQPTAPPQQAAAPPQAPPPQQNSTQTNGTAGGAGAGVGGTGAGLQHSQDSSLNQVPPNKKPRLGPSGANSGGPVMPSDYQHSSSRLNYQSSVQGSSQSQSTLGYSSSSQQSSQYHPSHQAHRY

The target of this test is T1, CDK19_CycC (Homo sapiens, UniProt Q9BWU1).
T1 construct: purchased Reaction Biology
Description: Radiometric protein kinase assay (33PanQinase), CDK19_CycC. The format is biochemical. The conditions noted are these: highest assay concentration 1.00E-05 M.

`CN1CCN(C(=O)c2ccc3cc(CCNc4ncnc5ccc(C#N)cc45)ccc3c2)CC1` [Senexin B, reference compound] returned an IC50 of 484 nM.
